The values that follow come from PMC2729490 (Biochemistry, 2009).

The target in test [1] is T1, calmodulin (CaM), Ca^2+ loaded (Homo sapiens, UniProt P0DP23). The experiment in a line: Isothermal titration calorimetry with CaM. In kind it is binding. The conditions noted are these: ITC, 25°C, pH 6.5, 10 mM CaCl2. Background: ITC needs no label: the signal is the heat of the interaction.
Test [2] has as its target T1, calmodulin (CaM), Ca^2+ loaded. The experiment in a line: 1H-15N HSQC NMR titration of 15N CaM. The conditions noted are these: 25 °C, pH 6.5, 10 mM CaCl2, 136-150 μM 15N CaM. The test is classed as binding.

On to `CC[C@H](C)[C@H](NC(=O)[C@@H](NC(=O)[C@H](CS)NC(=O)[C@H](CCCCN)NC(=O)[C@@H](NC(=O)[C@H](CCCCN)NC(=O)[C@H](CO)NC(=O)[C@H](CCCCN)NC(=O)[C@H](CCCCN)NC(=O)[C@H](CCCCN)NC(=O)[C@H](CCCCN)NC(=O)[C@H](CCCCN)NC(=O)[C@H](CCCCN)NC(=O)CNC(=O)[C@H](CC(=O)O)NC(=O)[C@H](CCCCN)NC(=O)[C@H](CO)NC(=O)[C@H](CCSC)NC(=O)[C@H](CCCCN)NC(=O)[C@H](CCC(=O)O)NC(=O)[C@@H](N)CCCCN)[C@@H](C)O)C(C)C)C(=O)N[C@@H](CCSC)C(=O)O` [HVR peptide], for which the “heat of binding (sign)” value in test [1] is “Endothermic binding”. Further, in test [1] (one set of sites model), the “stoichiometry of CaM binding / number of binding sites” value was “one binding site”, the ΔH was 0.65 ± 0.1 kcal/mol and the ΔS is reported as 25.1 cal/deg/mol. Moreover, the “saturation of CaM, molar equivalents” value in test [2] was 2.1 molar equivalents.
